Results as given in patent US20040038828A1 (priority 2002, published 2004).

Experiments:
[1] = tested on: Little mallow; test: Field study Salinas, weed biomass; details: Salinas plots; rate 400 lbs acres^−1
[2] = tested on: Annual Bluegrass; test: Field study Watsonville, weed biomass; details: Watsonville plots; rate 400 lbs acres^−1
[3] = tested on: Strawberries (Fragaria X ananassa Duchesne); test: Field study Salinas, strawberry fruit yield and dead plants
[4] = tested on: Strawberries (Fragaria X ananassa Duchesne); test: Field study Watsonville, strawberry fruit yield and dead plants
[5] = drip applied, 400 pound per acre, preplant

Substance: 2-bromoethanol
- weed biomass, Little mallow [1]: 4.2 gram/m^2
- weed biomass, Annual Bluegrass [2]: 5.9 gram/m^2
- percentage of dead plants (MB:CP versus 2-bromoethanol) ([3]; P<0.05): not significantly different
- fruit yield relative to MB:CP fumigation [3, 5]: 115%
- fruit yield relative to MB:CP fumigation [4, 5]: > 95%
- percentage of dead strawberry plants (compared with untreated control) ([4]; soil infested with Verticillium dahliea): greater in the untreated control
